We go through one compound from paper PMC8881063 (Journal of Enzyme Inhibition and Medicinal Chemistry, 2022).

Amino acid sequences for entries named in this document (tags omitted).
UniProt P27338, whole entry: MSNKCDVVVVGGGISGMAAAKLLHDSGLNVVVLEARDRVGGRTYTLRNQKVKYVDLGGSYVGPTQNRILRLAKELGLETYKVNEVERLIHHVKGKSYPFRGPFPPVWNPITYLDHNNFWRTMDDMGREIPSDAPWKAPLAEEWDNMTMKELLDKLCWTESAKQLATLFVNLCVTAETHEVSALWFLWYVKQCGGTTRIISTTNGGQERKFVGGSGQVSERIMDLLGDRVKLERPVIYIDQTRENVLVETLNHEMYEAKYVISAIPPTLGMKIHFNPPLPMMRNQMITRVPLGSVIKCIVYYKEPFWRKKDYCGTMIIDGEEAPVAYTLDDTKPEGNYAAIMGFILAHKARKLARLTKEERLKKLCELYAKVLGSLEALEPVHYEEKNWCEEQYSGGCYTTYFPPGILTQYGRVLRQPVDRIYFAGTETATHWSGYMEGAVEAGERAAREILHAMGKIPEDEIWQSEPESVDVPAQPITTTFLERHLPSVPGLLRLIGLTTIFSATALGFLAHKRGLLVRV

This test has as its target MAO-B (Homo sapiens, UniProt P27338). Put plainly: hMAO-B inhibition, spectrophotometric assay.

Structures are written as SMILES.

By IC50 is commonly meant the midpoint of a concentration-inhibition curve. A lower IC50 goes with greater potency in that assay. One may read the inhibition as the drop in the measured response relative to a control, in per cent. Compound `O=C1/C(=C/c2ccc(O)cc2)Oc2cc(O)ccc21` [Hispidol, hispidol, reference compound] displayed a half-maximal inhibitory concentration (IC50) of over 10 µM. The “Selectivity index for inhibition of MAO-B” value (IC50 MAO-A divided by IC50 MAO-B) was under 0.53. Also, under “read-out: MAO-B % Inhibition”, the inhibition at 10 µM stood at 34.6%.
